This data set concerns human lung epithelial cancer cell line A549. Conditions: A549 cells, 24 h, MTT.
`CNc1cc(C)nc(NCc2ccc3[nH]c(C)c(C)c3c2)n1` came in with an LD50 of 75.7 µM.
The figure for `CCc1[nH]c2ccc(CNCc3cc(OC)c4c(c3)OCO4)cc2c1C` is 31.5 µM; for `COc1cccc(-n2cc(CN(C)Cc3ccc(O)c(Cl)c3)cn2)c1` it is 44.7 µM.
With `CCc1[nH]c2ccc(CNc3nccc(N4CCCC(O)C4)n3)cc2c1C` (centres unmarked) the figure was 89.7 µM; with `CC(C)Nc1ccnc(NCc2cccnc2Oc2ccc(F)cc2F)n1`, 19.6 µM.
The figure for `Cc1[nH]c2ccc(CNc3nccc(N)n3)cc2c1C` is 181.3 µM; for `CCNc1ccnc(NCc2cccnc2Oc2ccc(F)cc2F)n1` it is 22.4 µM.
As for `Cc1cc2c(N3CCCC(c4nccn4CC4CCC4)C3)ncnc2s1` (centres unmarked), the LD50 turned out to be 87.1 µM.

The record behind these values is article PMC10128061, “Targeting Sterylglucosidase A to Treat Aspergillus fumigatus Infections” (mBio, 2023).
